Experimental data published in patent EP0399716A1, “Hypoallergenic steroidal anesthetic/hypnotic compositions” (INNOVET, INC., priority 1989, dated 1990).

Test system: horses
Assay: Alfaxalone/HPCD anesthesia in the horse
Details: after xylazine premedication
Method: In the first stage, two horses were anesthetized after heavy premedication with xylazine (0.6 mg/kg). […] Heart rate, respiratory rate, blood pressure, ECG and ventilation were monitored throughout the anesthesia period.
The same parameters as in the first stage were monitored.
Cardiopulmonary parameters were monitored as before.
To provide some comparison in the above stages, the two horses were anesthetized with thiamylal sodium (8 mg/kg) after the same premedication as before and a similar monitoring regime followed.
A third horse was obtained and the same regimen was followed as in the third stage, but three "top-ups" of one-third induction dose were administered at 10 minute intervals. Similar monitoring as above was continued.
Blood pressure was measured from an acutely placed antraarterial catheter and read through a transducer/digital readout system which included an ECG tracing oscilloscope.

CC(=O)[C@H]1CC[C@H]2[C@@H]3CC[C@H]4C[C@H](O)CC[C@]4(C)[C@H]3C(=O)C[C@]12C (stereo in doubt) [alfaxalone, 3α-hydroxy-5α-pregnane-11,20-dione]
blood pressure effect: hypertension
